Measurements from patent publication US20030206891A1, “Rapamycin-based biological regulation” (ARIAD Gene Therapeutics, Inc., priority 1995, published 2003).

Chains of the proteins cited; added tags and fusions are not shown.
UniProt P62942, whole entry: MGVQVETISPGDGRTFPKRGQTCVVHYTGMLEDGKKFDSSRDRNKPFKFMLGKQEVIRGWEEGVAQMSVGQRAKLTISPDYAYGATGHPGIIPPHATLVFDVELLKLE

Target: T1, FKBP (Homo sapiens, UniProt P62942)
T1 construct: made in house
Assay: Competitive fluorescence polarization (FP) assay of binding to FKBP with fluoresceinated FK506 probe AP1491
Settings: for fold loss in affinity (=IC50/IC50 of rapamycin): C24 oxime experiment

[1] = rapamycin C24 oximes, competitive FP vs AP1491 probe, recombinant FKBP

Row | Substance | fold loss in affinity (=IC50/IC50 of rapamycin) | IC50 [1] [µM] | IC50 (C7 rapalog experiment, competitive FP) [µM] | IC50 (controls in the C24 oxime experiment, competitive FP) [µM]
1 | Rapamycin (E and Z)-24-(O-methyloxime) [AP1732] | 203 | 1.6 | – | –
2 | Rapamycin (E and Z)-24-(O-methyloxime) [AP1731] | 405 | 3.2 | – | –
3 | Rapamycin (E and Z)-24-(O-isobutyloxime) [AP1684] | >3000 | > 30 | – | –
4 | Rapamycin (E and Z)-24-(O-ethyloxime) [AP1689] | 355 | 3.55 | – | –
5 | C14-desoxo-rapamycin [reference compound] | – | – | 0.162 | 0.186
6 | Rapamycin (E and Z)-24-(O-isobutyloxime) [AP1685] | 1000 | 10 | – | –
7 | Rapamycin (E and Z)-24-(O-benzyloxime) [AP1682] | >3000 | > 30 | – | –
8 | Rapamycin (E and Z)-24-(O-benzyloxime) [AP1683] | 346 | 3.46 | – | –
